{"source": "paper PMC7321103", "about": "“In Vitro Metabolic Transformation of Pharmaceuticals by Hepatic S9 Fractions from Common Carp (Cyprinus carpio)” (Molecules, 2020)", "system": "common carp hepatic S9 fraction", "assay": "TNBP metabolite formation by common carp hepatic S9 (S9 characterization)", "settings": "common carp hepatic S9, 2 µM TNBP"}
{"substance": "tris(n-butyl) phosphate", "values": [{"measurement": "TNBP metabolite production", "value": "+"}]}
